Key:
[1] = system: guinea pig isolated parenchymal strips; assay: Inhibition by CGRP of substance P-induced contraction in isolated parenchymal strips; format: cell-based
Description: Adult Hartley albino guinea pigs of either sex, weighing 200-250 g were actively sensitized to ovalbumin (OA), as described in (20). They were injected with 100 mg i.p. and 100 mg s.c. of OA on day 1 and a further 10 mg i.p. was administered as a booster on day 8. They were used experimentally 14 or 15 days later. Control animals received the vehicle solution only. All research protocols conform to the guiding principles for animal experimentation and were approved by the Ethical Committee on Animal Research of the Medical School of the Université de Sherbrooke.
Guinea pigs were killed by exsanguination following intraperitoneal injection of pentobarbitone sodium (50 mg/kg). The trachea and lungs were quickly removed and placed in cold Krebs solution. Both right and left main bronchi were dissected out and cut into spirals. Parenchymal strips (approximately 15 mm×3 mm×3 mm) were cut from the periphery of either right or left lower lobes of the lung as previously described (4, 20). Each preparation was mounted in a 5 ml organ bath containing Krebs solution (37° C.) bubbled with 5% CO2 in O2. Contractions were measured isometrically with a Grass FT03 force displacement transducer and recorded on a Grass polygraph (Model 7D) as tension changes (g). All tissues were subjected to an initial loading tension of 1 g and allowed to equilibrate for 60 min (with changes of bath medium every 15 min) before experimentation began.
The inhibitory effect of CGRP on SP-induced contractions was investigated essentially as described previously (4, 20). Each tissue preparation was first primed with a concentration of carbamylcholine (10^−6M) to evaluate its responsiveness. When the basal tone was reestablished (after a few washouts), contractions to SP (5×10^−8M) were elicited at 15 min intervals with a drug contact time just sufficient to record the peak response. CGRP (10^−9M to 10^−6M) was then added to the organ bath and 5 minutes later a further spasmogen challenge occurred. The contraction produced in the presence of CGRP was then compared with the mean of two control responses to SP observed prior to CGRP administration. […] Concentrations of CGRP were tested in a random order in each experiment. It is worthy of note that the inhibitory effect of CGRP on contractions induced by SP was also examined at a dose of SP (5×10^−8M) that induced similar maximal responses in tissues obtained from each group of animals.

[2] = system: rat isolated airways; conditions: references (4, 21), cited from earlier work
[3] = system: allergic guinea pigs; assay: Eosinophil chemotaxis in airways of allergic guinea pigs after inhaled CGRP (BAL and lung histology); format: in vivo, guinea pig; conditions: 24 hours
Description: Guinea pigs were actively sensitized to ovalbumin as described above. On the days of experimentation, they were challenged by inhalation (3 min) of aerosolized ovalbumin (1.5 mg/ml). Fifteen minutes after the ovalbumin challenge, an aerosol solution of 30 μg/ml CGRP or sterile 0.9% saline solution (control) was inhaled for 10 minutes in only one dosage regime. Ovalbumin and CGRP for inhalation were dissolved in sterile 0.9% saline solution and converted into an aerosol with a portable nebulizer driven by compressed air at 7 L/min. After 24 hrs, animals were divided equally into different groups and cellular infiltration into the airways was assessed by both cytological and histopathological examinations.
Guinea pigs were anesthetized with pentobarbitone sodium, 50 mg/kg injected intraperitoneally and exsanguinated by dorsal aorta section. Bronchoalveolar lavage (BAL) was performed with 4×5 ml volumes of phosphate buffered saline (PBS) solution at 37° C. The recovered fluid was combined and the cells were pelleted by centrifugation at 1250 rpm for 10 min at 4° C. After resuspension in 1 ml of PBS, total leucocyte counts, were done with a Newbauer hemocytometer. Differential cell counts were performed on cytospin preparations stained with 5% Giemsa. Standard morphologic criteria were used to identify the population of eosinophils.
For histopathological examination of the lungs, guinea pigs were euthanized as described above. Samples of lungs were removed and fixed in Bouin's solution. After the fixation, the specimens were embedded in paraffin wax, cut into 5 mm thick sections and stained with hematoxylineosin.

[4] = system: allergic guinea pigs; assay: Allergen (ovalbumin)-induced bronchospasm (PIP) in allergic guinea pigs; format: in vivo, guinea pig; conditions: CGRP pretreatment 3.8 to 114 mg/kg i.v., 5 minutes before OA 0.25 mg/kg i.v.
Description: Guinea pigs were anaesthetized with xylazine (20 mg/kg, i.m.) and ketamine hydrochloride (130 mg/kg, i.m.). The jugular vein and trachea were cannulated and animals were mechanically ventilated with a constant-volume rodent respirator (Havard, model 683) delivering a tidal volume of 5.5 ml/kg at a frequency of 60 cycles/min via the tracheal cannula. Airway resistance was measured by the overflow technique according to well-validated and standardized procedures. Briefly, ventilation overflow (i.e., the pulmonary insufflation pressure or PIP), was recorded at the side arm of the tracheal cannula by means of a differential pressure transducer (Gould P23 ID) connected to a Grass polygraph (model 7D). Airway responsiveness was assessed by measuring the changes in PIP following i.v. injections of the agonists. Changes in PIP, which were taken as an index of changed airway resistance, were measured and expressed in mm of mercury (mm Hg). […]
To determine the effect of CGRP on antigen-induced challenge in allergic guinea pigs, CGRP (3.8 to 114 mg/kg) was administered intravenously 5 minutes prior to the ovalbumin challenge (0.1 mg/kg, i.v.). […] In some experiments, systemic arterial blood pressure was monitored at the same time via a polyethylene catheter filled with heparinized-saline inserted into a carotid artery and linked to a pressure transducer (Gould P23 1 D) and a Grass polygraph.

[5] = CGRP 30 μg/ml aerosol inhaled 10 minutes, 15 minutes after OA-challenge

Substance: calcitonin gene-related peptide [CGRP]
- maximum inhibition of SP-induced contraction ([1]; OA-sensitized guinea pigs, CGRP 10^−6M, SP 5×10^−8M, n=5): 18.7±4.8%
- effect on contractions induced by SP ([1]; both groups of tissue (control and OA-sensitized), CGRP 10^−6M): significantly inhibited
- inhibitory effect on SP-induced contraction, percentage of contraction developed by SP alone ([1]; control guinea pigs, CGRP 10^−6M, SP 5×10^−8M, n=4): 47.3±3%
- effect on SP-induced contraction ([1]; control tissues, CGRP 10^−8M pre-incubation): slight reduction
- direct relaxant or contractile action per se ([1]; guinea pig isolated airways, exogenously applied CGRP alone): no relaxant and no contractile action
- effect on SP-evoked response ([1]; parenchyma from OA-sensitized animals, CGRP 10^−8M): did not alter the amplitude or the shape
- prevention of bronchospasms induced by carbamylcholine and 5-hydroxytryptamine ([2]; concentration-related): marked ability to prevent
- direct contractile or relaxant effects ([2]; trachea, bronchi and lung parenchymal strips): devoid of any direct contractile or relaxant effects
- rise in BAL-eosinophil numbers versus OA [3, 5]: 2 fold
- rise in BAL-eosinophil numbers versus control [3, 5]: 12 fold
- population of eosinophils in lung tissues ([3]; inhaled CGRP 15 minutes after OA-challenge, not shown): drastically decreased
- effect on OA-induced increase in airway resistance (PIP) [4]: inhibited in a dose-related manner

From patent US6743429B2, “Use of calcitonin gene-related peptide in the prevention and alleviation of asthma and related bronchospastic pulmonary diseases” (Sherbrooke University, priority 1999, dated 2004)
